Results on eleven compounds are retold here after PubChem BioAssay AID873 (PCMD, 2007).

By UniProt entry, the sequences of proteins in these tests, tags left out. Residues count along the entry.
UniProt Q9Y337, 67-293 limits assumed: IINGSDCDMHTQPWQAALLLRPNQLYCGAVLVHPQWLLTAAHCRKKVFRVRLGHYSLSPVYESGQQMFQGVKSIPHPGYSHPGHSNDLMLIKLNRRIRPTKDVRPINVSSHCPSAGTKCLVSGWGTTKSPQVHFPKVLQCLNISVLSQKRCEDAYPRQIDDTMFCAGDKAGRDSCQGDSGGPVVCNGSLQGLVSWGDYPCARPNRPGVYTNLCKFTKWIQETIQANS

Only a part is listed here, and it is no random draw. Some results for these compounds are left out of this collection, so the calls shown say nothing about other tests. Calls of active or inactive are those of the source.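 The calls were made as follows: active = inhibition of 40% or more; inactive = the rest.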

The term inhibition denotes the change of the read-out against control, counted positive when it falls.

The experiment deals with Kallikrein-5 (Homo sapiens) (UniProt Q9Y337). Nature of the experiment: human KLK5 protease inhibitors, primary screen, biochemical, 1536-well (AID 873).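 Also: 0% = enzyme controls without compound and 100% = no-enzyme blanks.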 As to conditions: recombinant hK5, fluorogenic AMC substrate cleavage; at 5 µM; active compounds read high.
`COc1cccc(C(=O)NCC2(N3CCCCC3)CCCCC2)c1`: the inhibition is inactive: 7.18%.

As for `CN(C)c1cccc(C(=O)NCC2(N(C)C)CCCCC2)c1`, the inhibition was inactive: 16.1%.

Consider `COc1ccc(Br)c(C(=O)NCC2(N3CCCCC3)CCCCC2)c1`, for which the inhibition was inactive: -0.17%.

With `O=C(OC1CN2CCC1CC2)C(CO)(c1ccccc1)c1ccccc1` (stereo unspecified), the inhibition is inactive: -18.8%.

`CCN(CC)CC(C)C(C)OC(=O)C(O)(c1ccccc1)c1ccccc1` (stereo unspecified): the inhibition was inactive: 0.7%.

Consider `CC(C)N1C(=O)CC2(CCN(CCOC(=O)C(O)(c3ccccc3)c3ccccc3)CC2)C1=O`, for which the inhibition was inactive: -5.81%.

Turning to `O=C(NCC1(N2CCCCC2)CCCCC1)c1cc([N+](=O)[O-])ccc1Cl`, the inhibition was inactive: -0.63%.

As to `CCN1CCCC(OC(=O)C2(O)c3ccccc3C=Cc3ccccc32)C1` (stereo unspecified), the inhibition is inactive: -13.8%.

Consider `C=CCN1CCN(CCOC(=O)C(O)(c2ccccc2)c2ccccc2)CC1`, for which the inhibition was inactive: 0.59%.

Turning to `CN(C)C1CCCC1OC(=O)C(O)(c1ccccc1)c1ccccc1` (stereo unspecified), the inhibition was inactive: -6.26%.

Turning to `Cc1ccccc1C(=O)NCC1(N2CCCCC2)CCCCC1`, the inhibition was inactive: -5.57%.
